The text below walks through data of PubChem BioAssay (NCI).

Some test systems named below: NCI/ADR-RES ovarian; T-47D breast; BT-549 breast; MDA-MB-435 melanoma; SW-620 colon; MCF7 breast; HCT-116 colon; HCC-2998 colon; KM12 colon.
What all share (test): NCI-60 one-dose screen, 48 h (100 = growth as untreated, 0 = no growth, -100 = all killed)
Common to all, as to settings: 10 µM unless noted

Molecules are shown by their SMILES. The list shows a part of the results, in another mix than the full data.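 Growth was measured after 48 h exposure to one concentration of compound in 96-well plates. Values under 10 count as active.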 Calls of active or inactive are those of the source.

Take `O=C(O)C(=O)c1ccc(N(CCCl)CCCl)cc1`: the growth with NCI/ADR-RES ovarian is inactive: 108%; in the test on T-47D breast it was inactive: 98.7%; with BT-549 breast, inactive: 101%; in the test on MDA-MB-435 melanoma it was inactive: 112%; in the test with SW-620 colon, inactive: 108%; in the test on MCF7 breast, inactive: 111%. In addition, the growth with HCT-116 colon is inactive: 104%; with HCC-2998 colon it was inactive: 115%; in the test with KM12 colon, inactive: 103%.

With `CCOC(=O)NC(c1ccccc1[N+](=O)[O-])P(=O)(O)Nc1ncn[nH]1` (centres undefined), the growth is inactive: 105% in the test with NCI/ADR-RES ovarian; inactive: 95.7% in the test on T-47D breast; inactive: 122% in the test on BT-549 breast; inactive: 127% in the test on MDA-MB-435 melanoma; inactive: 120% in the test with SW-620 colon; inactive: 98.9% with MCF7 breast. The growth was inactive: 103% in the test with HCT-116 colon, inactive: 118% in the test with HCC-2998 colon and inactive: 109% with KM12 colon.

With `COC(=O)C(=[N+]=[N-])C(=O)c1cc([N+](=O)[O-])cc([N+](=O)[O-])c1`, the growth is inactive: 118% in the test on NCI/ADR-RES ovarian; inactive: 115% with T-47D breast; inactive: 110% with BT-549 breast; inactive: 117% with MDA-MB-435 melanoma; inactive: 110% in the test on SW-620 colon; inactive: 103% with MCF7 breast. In addition, the values for the growth in the test on HCT-116 colon, with HCC-2998 colon and in the test on KM12 colon were inactive: 104%, inactive: 115% and inactive: 106%, respectively.

Take `CN(C)P(=O)(Nc1ccccn1)N(C)C`: the growth in the test on NCI/ADR-RES ovarian was inactive: 109%; in the test on T-47D breast, inactive: 103%; in the test on BT-549 breast it was inactive: 104%; with MDA-MB-435 melanoma, inactive: 103%; with SW-620 colon, inactive: 106%; in the test on MCF7 breast, inactive: 97.9%. Moreover, the growth with HCT-116 colon is inactive: 108%; in the test on HCC-2998 colon, inactive: 101%; with KM12 colon it was inactive: 111%.

In the case of `COc1cccc([As]=O)c1` (centres undefined), the growth is active: -23.9% in the test on NCI/ADR-RES ovarian; active: -30.2% in the test on T-47D breast; active: -94.4% with BT-549 breast; active: -89.7% with MDA-MB-435 melanoma; active: -34.3% in the test with SW-620 colon; active: -46.3% with MCF7 breast. For the same compound, the growth with HCT-116 colon is active: -82.2%; with HCC-2998 colon, active: -95.4%; in the test with KM12 colon it was active: -81.5%.

As to `O=C1OP(=O)(Cl)Oc2ccccc21` (centres undefined), the growth was inactive: 102% with NCI/ADR-RES ovarian; inactive: 93.9% in the test with T-47D breast; inactive: 110% with BT-549 breast; inactive: 105% in the test with MDA-MB-435 melanoma; inactive: 98.6% in the test with SW-620 colon; inactive: 98.2% in the test on MCF7 breast. The results for the growth in the test with HCT-116 colon, in the test with HCC-2998 colon and with KM12 colon were inactive: 97.7%, inactive: 104% and inactive: 104%, respectively.

In the case of `CCOCCN(CCCl)Cc1ccccc1`, the growth was inactive: 105% in the test with NCI/ADR-RES ovarian; inactive: 85.1% in the test with T-47D breast; inactive: 104% with BT-549 breast; inactive: 108% with MDA-MB-435 melanoma; inactive: 112% in the test on SW-620 colon; inactive: 100% with MCF7 breast. The growth was inactive: 96.3% in the test on HCT-116 colon, inactive: 107% in the test with HCC-2998 colon and inactive: 106% in the test on KM12 colon.

Take `O=C(O[C@H]1CN2CCC1CC2)C1NCc2ccccc2[C@@H]1c1ccccc1` (some centres undefined): the growth was inactive: 96.5% in the test on NCI/ADR-RES ovarian; inactive: 92.5% in the test with T-47D breast; inactive: 96.5% in the test on BT-549 breast; inactive: 104% in the test on MDA-MB-435 melanoma; inactive: 108% in the test with SW-620 colon; inactive: 105% in the test on MCF7 breast. Besides, the growth in the test on HCT-116 colon was inactive: 91%; in the test with HCC-2998 colon, inactive: 109%; with KM12 colon it was inactive: 103%.

For `Nc1ccccc1[As](=O)(O)c1ccccc1`, the growth was inactive: 95.4% with NCI/ADR-RES ovarian; inactive: 99.1% in the test on T-47D breast; inactive: 109% with BT-549 breast; inactive: 103% in the test on MDA-MB-435 melanoma; inactive: 97.2% in the test with SW-620 colon; inactive: 96.5% with MCF7 breast. In addition, the growth in the test with HCT-116 colon was inactive: 103%; in the test on HCC-2998 colon, inactive: 107%; in the test with KM12 colon, inactive: 98%.

Regarding `ClP1(Cl)=NP(Cl)(Cl)=NP(c2ccccc2)(c2ccccc2)=N1`, the growth with NCI/ADR-RES ovarian is inactive: 97.1%; in the test with T-47D breast it was inactive: 57.3%; in the test on BT-549 breast, inactive: 82.9%; in the test on MDA-MB-435 melanoma, inactive: 104%; in the test with SW-620 colon, inactive: 102%; in the test on MCF7 breast, inactive: 98.6%. In addition, the growth in the test on HCT-116 colon is inactive: 81.8%; in the test on HCC-2998 colon, inactive: 103%; with KM12 colon it was inactive: 103%.

On to `CN(C)P(=O)(N(C)C)n1c(Nc2ccccc2)nnc1-c1ccccc1`, for which the growth with NCI/ADR-RES ovarian is inactive: 99.7%; in the test on T-47D breast it was inactive: 86%; with BT-549 breast it was inactive: 100%; in the test with MDA-MB-435 melanoma it was inactive: 108%; with SW-620 colon, inactive: 107%; in the test on MCF7 breast, inactive: 99.2%. Further, the growth with HCT-116 colon is inactive: 85.2%; with HCC-2998 colon it was inactive: 96.7%; in the test on KM12 colon, inactive: 88.3%.

As to `ClCCN(CCc1ccccc1)Cc1ccccc1`, the growth with NCI/ADR-RES ovarian was inactive: 97.7%; in the test with T-47D breast it was inactive: 85.6%; with BT-549 breast, inactive: 104%; in the test with MDA-MB-435 melanoma, inactive: 107%; in the test on SW-620 colon, inactive: 98.6%; in the test with MCF7 breast, inactive: 101%. Further, the growth with HCT-116 colon was inactive: 93.2%; in the test on HCC-2998 colon, inactive: 103%; in the test on KM12 colon it was inactive: 104%.

With `Cc1ccc(C)c(C(=O)N(CCCl)CCCl)c1`, the growth was inactive: 102% in the test on NCI/ADR-RES ovarian; inactive: 105% in the test on T-47D breast; inactive: 106% with BT-549 breast; inactive: 92.8% with MDA-MB-435 melanoma; inactive: 95.6% in the test with SW-620 colon; inactive: 93.2% in the test with MCF7 breast. Besides, the figures for the growth with HCT-116 colon, with HCC-2998 colon and in the test with KM12 colon were inactive: 104%, inactive: 98.2% and inactive: 99.3%, respectively.

On to `CCCCOP(OCCCC)OCCCC`, for which the growth in the test on NCI/ADR-RES ovarian was inactive: 107%; in the test on T-47D breast, inactive: 105%; with BT-549 breast, inactive: 107%; with MDA-MB-435 melanoma, inactive: 116%; in the test on SW-620 colon it was inactive: 107%; with MCF7 breast it was inactive: 98.2%. Moreover, the growth was inactive: 97.2% with HCT-116 colon, inactive: 113% in the test with HCC-2998 colon and inactive: 113% in the test with KM12 colon.

Consider `O=S1(=O)CC(Sc2ccccc2)[C@@H](Cl)C1` (some centres undefined), for which the growth in the test on NCI/ADR-RES ovarian is inactive: 110%; in the test with T-47D breast, inactive: 88.4%; in the test on BT-549 breast, inactive: 102%; in the test on MDA-MB-435 melanoma it was inactive: 107%; with SW-620 colon, inactive: 101%; in the test on MCF7 breast, inactive: 103%. The results for the growth with HCT-116 colon, in the test with HCC-2998 colon and in the test on KM12 colon were inactive: 103%, inactive: 108% and inactive: 106%, respectively.

As to `Cc1ccc(S(=O)(=O)n2cc(C3(O)CC(CC#N)OC3=O)c3cc(Br)ccc32)cc1` (centres undefined), the growth with NCI/ADR-RES ovarian is inactive: 113%; in the test with T-47D breast, inactive: 128%; in the test on BT-549 breast it was inactive: 108%; in the test on MDA-MB-435 melanoma it was inactive: 109%; with SW-620 colon it was inactive: 100%; in the test on MCF7 breast it was inactive: 104%. The growth with HCT-116 colon is inactive: 111%; with HCC-2998 colon it was inactive: 125%; with KM12 colon, inactive: 100%.
